Experimental data taken from patent publication US11578074B2, “Nitrogenous heterocyclic compound, preparation method, intermediate, composition, and application” (SHANGHAI PHARMACEUTICALS HOLDING CO., LTD., priority 2017, dated 2023).

Sequences of proteins named here, by UniProt entry; tags and fusion partners are left off. Residues count along the entry.
UniProt P00533, 25-1210: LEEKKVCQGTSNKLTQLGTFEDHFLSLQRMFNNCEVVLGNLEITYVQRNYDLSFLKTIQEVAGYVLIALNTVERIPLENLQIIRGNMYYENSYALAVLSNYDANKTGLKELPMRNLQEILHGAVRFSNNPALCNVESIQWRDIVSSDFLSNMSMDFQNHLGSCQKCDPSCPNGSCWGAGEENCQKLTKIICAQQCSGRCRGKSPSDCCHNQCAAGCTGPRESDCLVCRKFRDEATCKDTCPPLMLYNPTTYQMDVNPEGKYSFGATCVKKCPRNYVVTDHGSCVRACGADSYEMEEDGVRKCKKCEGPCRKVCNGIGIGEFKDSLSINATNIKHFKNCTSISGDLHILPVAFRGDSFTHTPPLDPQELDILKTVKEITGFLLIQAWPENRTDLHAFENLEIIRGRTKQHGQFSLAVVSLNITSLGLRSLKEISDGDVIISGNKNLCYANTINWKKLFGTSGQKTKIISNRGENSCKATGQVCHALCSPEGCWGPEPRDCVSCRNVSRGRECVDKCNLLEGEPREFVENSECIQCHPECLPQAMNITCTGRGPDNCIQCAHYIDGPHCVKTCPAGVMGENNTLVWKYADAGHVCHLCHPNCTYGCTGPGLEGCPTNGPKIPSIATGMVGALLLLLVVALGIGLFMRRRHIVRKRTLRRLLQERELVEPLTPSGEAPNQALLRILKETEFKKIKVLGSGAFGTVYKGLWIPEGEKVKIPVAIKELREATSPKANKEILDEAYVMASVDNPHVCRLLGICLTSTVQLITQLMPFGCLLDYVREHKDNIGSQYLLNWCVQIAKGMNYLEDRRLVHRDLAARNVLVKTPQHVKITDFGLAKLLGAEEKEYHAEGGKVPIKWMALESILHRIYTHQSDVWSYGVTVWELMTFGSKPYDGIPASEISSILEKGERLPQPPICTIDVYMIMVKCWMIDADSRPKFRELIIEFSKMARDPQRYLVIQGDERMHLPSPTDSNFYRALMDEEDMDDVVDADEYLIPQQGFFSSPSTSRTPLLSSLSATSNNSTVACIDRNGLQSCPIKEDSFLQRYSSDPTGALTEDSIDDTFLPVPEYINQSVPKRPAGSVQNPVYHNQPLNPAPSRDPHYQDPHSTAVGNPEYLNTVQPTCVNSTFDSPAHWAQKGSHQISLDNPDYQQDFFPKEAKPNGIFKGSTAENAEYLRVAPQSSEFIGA

Target: EGFR kinase (Homo sapiens, UniProt P00533)
Experiment: EGFR/ErbB2 enzymatic experiment (HTRF kinEASE-TK), EGFR

Molecule `CCOc1cc2ncc(C#N)c(Nc3ccc(OCc4ccccn4)c(Cl)c3)c2cc1NC(=O)/C=C/[C@H]1CCCN1C` [drawing 239, reference compound] has an IC50 of 0.26 nM.
